Measured values published in publication PMC3486420, “In Vitro and In Vivo Characterizations of Chiglitazar, a Newly Identified PPAR Pan-Agonist” (PPAR Research, 2012).

What was measured:
PPARα [1] = molecular target: T1, PPARα (Homo sapiens, UniProt Q07869); test: PPARα transactivation reporter gene assay in SMMC-7721 cells; type: cell-based; conditions: max response compared with WY at 50 μM
T1 sequence (Q07869 1-468): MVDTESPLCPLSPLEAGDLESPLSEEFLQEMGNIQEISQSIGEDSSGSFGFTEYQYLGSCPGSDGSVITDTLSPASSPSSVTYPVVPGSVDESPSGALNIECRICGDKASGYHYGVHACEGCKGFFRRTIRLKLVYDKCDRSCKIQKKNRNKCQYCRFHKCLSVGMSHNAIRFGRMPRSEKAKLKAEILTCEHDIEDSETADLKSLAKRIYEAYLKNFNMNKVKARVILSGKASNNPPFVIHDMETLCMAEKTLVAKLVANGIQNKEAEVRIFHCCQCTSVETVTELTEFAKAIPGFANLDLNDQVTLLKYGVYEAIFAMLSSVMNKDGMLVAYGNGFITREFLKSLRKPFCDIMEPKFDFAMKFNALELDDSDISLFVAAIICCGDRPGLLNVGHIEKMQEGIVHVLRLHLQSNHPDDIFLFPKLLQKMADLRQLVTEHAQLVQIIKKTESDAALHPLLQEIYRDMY
T1 sequence (P19793 1-462 partner): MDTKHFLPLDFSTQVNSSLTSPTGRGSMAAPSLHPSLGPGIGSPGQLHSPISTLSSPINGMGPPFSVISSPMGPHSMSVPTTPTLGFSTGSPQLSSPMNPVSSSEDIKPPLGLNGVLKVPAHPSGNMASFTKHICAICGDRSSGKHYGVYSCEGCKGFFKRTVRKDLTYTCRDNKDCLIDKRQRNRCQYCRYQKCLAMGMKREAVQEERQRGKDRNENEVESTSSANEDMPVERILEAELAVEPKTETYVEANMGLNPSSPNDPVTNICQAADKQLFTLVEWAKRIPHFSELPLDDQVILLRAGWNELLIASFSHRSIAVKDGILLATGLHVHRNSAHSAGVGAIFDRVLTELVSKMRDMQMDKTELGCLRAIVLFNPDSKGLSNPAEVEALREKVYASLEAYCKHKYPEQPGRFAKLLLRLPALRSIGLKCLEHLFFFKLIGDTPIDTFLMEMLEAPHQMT

PPARα [2] = molecular target: T1, PPARα; test: PPARα transactivation reporter gene assay in U2OS cells; type: cell-based; conditions: max response compared with WY at 50 μM

- PPARα % Max (PPARα [1]): 11%
- PPARα % Max (PPARα [2]): 16%
Structure (SMILES): CN(CCOc1ccc(CC2SC(=O)NC2=O)cc1)c1ccccn1 (centres unmarked) [Ros, rosiglitazone]
